According to patent US6964979B2, “R-enantiomers of pyranoindole derivatives and the use thereof for the treatment of hepatitis C virus infection or disease” (Wyeth, priority 2002, dated 2005):

Tested on: HCV replicon (1b) in Clone A cells (derived from Huh-7)
Assay: HCV replicon ELISA (NS5a) in Clone A cells
Type: cell-based, Hepatitis C virus
Settings: 3 days incubation
Experimental: The ability of the compounds of the present invention to inhibit Hepatitis C virus replicon constitutively expressed in a human liver cell line was established by the following experimental procedure:
Clone A cells (licensed from Apath, LLC) are derived from Huh-7 cells (human hepatoma cell line) and constitutively express of the HCV replication proteins with concomitant amplification the HCV replicon (1b) genome. Cells are maintained and passaged in DMEM/10% FCS/1 mg/ml G418 (Geneticin from Gibco #11811-023; other media components as described below in “elisa media”). Care should be taken to maintain cell monolayers at a subconfluent state by 1:3 or 1:4 passages every 3-4 days. The replicon is extremely sensitive to the cellular metabolism/proliferation state and replicon copy number will rapidly decline in confluent monolayers (resting cells). Under ideal conditions each cell has, on average, 1000 copies of the HCV replicon genome. […]
Compound Dilution/Cell Plating: • Drug Plate Preparation (Mother Plate) • 10 μl of compounds (in DMSO) are added to column 3 of the mother plate. […] Mother plates are set aside until ready for serial dilution to be performed. • Control Drugs […]

Interferon-a2: reference compound of the HCV replicon ELISA assay
IC50 (reference compound, replicon ELISA): 4-30 U/ml
